The target of this assay is UCHL5 (Homo sapiens, UniProt Q9Y5K5). As to the kind of experiment: in vitro DUB assay with purified UCHL5 and Ub-rhodamine 110. As to conditions: read-out: inhibition of UCHL5 activity. It is filed as biochemical.

Amino acid sequences for entries named in this document (tags omitted).
UniProt Q9Y5K5, whole entry: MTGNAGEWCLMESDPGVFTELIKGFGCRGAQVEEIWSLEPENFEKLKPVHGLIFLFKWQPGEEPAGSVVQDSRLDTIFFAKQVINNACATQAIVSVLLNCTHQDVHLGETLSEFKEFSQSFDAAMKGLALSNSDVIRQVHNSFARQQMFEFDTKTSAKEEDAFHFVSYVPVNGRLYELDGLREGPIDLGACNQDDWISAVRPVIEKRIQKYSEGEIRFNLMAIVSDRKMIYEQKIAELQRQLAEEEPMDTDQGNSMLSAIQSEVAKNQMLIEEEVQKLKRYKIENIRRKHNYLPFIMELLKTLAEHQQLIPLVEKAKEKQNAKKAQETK

As for `CC(C(=O)O)c1ccc(C(=O)c2ccccc2)s1` (stereo not shown) [TA, tiaprofenic acid, reference compound], the inhibition at 200 µM was in the range of 15 to 20%.

Source of the values: paper PMC7880549 (Bioorganic & medicinal chemistry, 2020).
